Data: patent EP1160247A1, “6,5-Fused aromatic ring systems having enhanced phosphodiesterae IV inhibitory activity” (Euro-Celtique S.A., priority 2000, dated 2001)

By UniProt entry, the sequences of proteins in these tests, tags left out. Where a name states a change or a piece, a line headed by the entry shows the natural chain unless it says otherwise.
UniProt Q14432: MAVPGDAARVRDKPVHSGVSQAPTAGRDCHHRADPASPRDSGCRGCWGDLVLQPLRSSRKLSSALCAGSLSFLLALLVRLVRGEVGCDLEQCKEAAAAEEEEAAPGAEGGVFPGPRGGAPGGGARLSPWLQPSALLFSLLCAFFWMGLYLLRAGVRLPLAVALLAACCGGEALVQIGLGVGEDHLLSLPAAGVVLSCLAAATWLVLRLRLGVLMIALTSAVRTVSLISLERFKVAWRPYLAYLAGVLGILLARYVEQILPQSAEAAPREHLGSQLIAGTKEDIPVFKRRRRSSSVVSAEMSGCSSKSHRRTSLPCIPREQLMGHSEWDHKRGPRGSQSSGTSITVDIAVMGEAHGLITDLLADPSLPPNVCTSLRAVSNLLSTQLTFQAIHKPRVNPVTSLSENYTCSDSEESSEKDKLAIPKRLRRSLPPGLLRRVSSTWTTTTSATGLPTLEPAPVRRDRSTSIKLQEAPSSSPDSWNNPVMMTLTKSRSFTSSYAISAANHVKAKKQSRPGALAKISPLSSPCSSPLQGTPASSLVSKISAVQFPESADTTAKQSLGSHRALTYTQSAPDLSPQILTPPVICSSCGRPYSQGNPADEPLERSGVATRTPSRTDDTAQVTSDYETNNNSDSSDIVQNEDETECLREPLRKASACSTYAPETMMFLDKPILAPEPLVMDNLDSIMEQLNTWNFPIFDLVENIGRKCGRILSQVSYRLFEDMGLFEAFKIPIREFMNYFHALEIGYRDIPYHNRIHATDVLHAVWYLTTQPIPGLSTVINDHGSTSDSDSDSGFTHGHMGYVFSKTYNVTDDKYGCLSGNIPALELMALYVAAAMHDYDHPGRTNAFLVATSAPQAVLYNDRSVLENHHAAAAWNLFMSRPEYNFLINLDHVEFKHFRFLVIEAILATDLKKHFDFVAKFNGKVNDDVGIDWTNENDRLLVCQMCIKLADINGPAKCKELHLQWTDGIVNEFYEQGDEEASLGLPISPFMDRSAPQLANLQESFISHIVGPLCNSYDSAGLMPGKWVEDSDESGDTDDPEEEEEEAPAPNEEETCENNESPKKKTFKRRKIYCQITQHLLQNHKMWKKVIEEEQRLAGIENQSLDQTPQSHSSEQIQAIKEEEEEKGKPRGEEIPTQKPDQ

Biological target: T1, PDE III (Homo sapiens, UniProt Q14432)
T1 construct: Fractions containing PDE III activity are pooled and dialyzed; from tissue; host or cells: human platelets (100,000 x g supernatant, DEAE-Trisacryl M fraction)
Experiment: Type III PDE activity, hydrolysis of [3H]-cyclic AMP
Assay type: biochemical
Protocol: The Type III PDE is isolated from human platelets using a procedure similar to that previously described by Weishaar, R.E.; Burrows, S.D.; Kobylarg, D.C., Quade, N.M.; Evans, D.B., Biochem. Pharmacol., 35:787, 1986. Briefly, 1-2 units of platelets are suspended in an equal volume of buffer (20 mM Tris-HCl, pH 7.5, containing 2 mM magnesium acetate, 1 mM dithiothreitol, and 5 mM Na2 EDTA). The protease inhibitor phenyl methyl-sulfonyl fluoride (PMSF) is also included in this buffer at a final concentration of 200 µM. The suspension is homogenized using a polytron and the homogenate centrifuged at 100,000 x g for 60 minutes. This and all subsequent procedures are performed at 0-4°C. The supernatant is then filtered through four layers of gauze and applied to a DEAE-Trisacryl M column, previously equilibrated with buffer B (20 mM Tris-HCl, pH 7.5, containing 1 mM magnesium acetate, 1 mM dithiothreitol and 200 µM PMSF). After application of the sample, the column is washed with several bed volumes of buffer B, after which the different forms of PDE are eluted from the column using two successive linear NaCl gradients (0.05-0.15 M, 300 ml total; 0.15-0.40 M, 200 ml total). […]
Enzyme activity is assessed by measuring the hydrolysis of [^3H]-cyclic AMP, as described by Thompson, W.J., Teraski, W.L., Epstein, P.N., Strada, S.J.: Adv. […]

Cn1c(=O)c2[nH]cnc2n(C)c1=O [Theophylline, reference compound]
IC50: 380 µM
